# Source: PubChem BioAssay AID2606 (The Scripps Research Institute Molecular Screening Center, 2010)
# Protein sequences, listed by entry. Tags and fused reporters are not part of them.
# UniProt P9WHR9, whole entry: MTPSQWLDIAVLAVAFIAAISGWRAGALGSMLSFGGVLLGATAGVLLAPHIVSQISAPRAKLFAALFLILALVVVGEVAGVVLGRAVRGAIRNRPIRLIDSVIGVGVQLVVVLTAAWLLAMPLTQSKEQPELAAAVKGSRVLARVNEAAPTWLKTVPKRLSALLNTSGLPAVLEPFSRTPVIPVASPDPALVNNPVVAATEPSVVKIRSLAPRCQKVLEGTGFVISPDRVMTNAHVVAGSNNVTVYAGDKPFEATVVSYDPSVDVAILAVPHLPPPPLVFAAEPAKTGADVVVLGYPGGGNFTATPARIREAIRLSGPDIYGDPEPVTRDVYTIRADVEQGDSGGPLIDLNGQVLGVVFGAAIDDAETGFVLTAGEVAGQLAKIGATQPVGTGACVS
# The entries are a selection whose mix differs from that of the whole data set. Some results for these compounds are left out of this collection, so the calls shown say nothing about other tests. The source made the active and inactive calls. Cut-off read from the data, not from the text of the source: active = inhibition above about 38%; inactive = the rest.
# Biological target: Serine protease Rv3671c (Mycobacterium tuberculosis (strain ATCC 25618 / H37Rv)) (UniProt P9WHR9)
# Experiment: inhibition of M. tuberculosis membrane protease Rv3671c – biochemical, fluorescence polarization, M. tuberculosis H37Rv, primary screen (AID 2606);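 note: extracellular domain of Rv3671c used as enzyme; 0% = enzyme with DMSO and 100% = no enzyme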
# Settings: at 5.96 µM; active compounds read high
row,SMILES,inhibition
1,O=C(OC1CN2CCC1CC2)C(CO)(c1ccccc1)c1ccccc1 (centres undefined),inactive: 3.34%
2,COc1ccc(Br)c(C(=O)NCC2(N3CCCCC3)CCCCC2)c1,inactive: -4.48%
3,CC(C)Oc1ccc(C(=O)NCC2(N(C)C)CCCCC2)cc1,inactive: 3.81%
4,CN(C)c1cccc(C(=O)NCC2(N(C)C)CCCCC2)c1,inactive: -0.58%
5,CN(C)C1(CNC(=O)c2ccc(Br)cc2)CCCCC1,inactive: 5.3%
6,COc1cc(C(=O)NCC2(N(C)C)CCCCC2)c([N+](=O)[O-])cc1OC,inactive: -20.2%
7,COc1cccc(C(=O)NCC2(N3CCCCC3)CCCCC2)c1,inactive: 2.19%
8,COc1ccc(Cl)cc1C(=O)NCC1(N(C)C)CCCCC1,inactive: 3.39%
9,O=C(NCC1(N2CCCCC2)CCCCC1)c1cccc(Cl)c1,inactive: -0.34%
10,Cc1ccccc1C(=O)NCC1(N2CCCCC2)CCCCC1,inactive: -10.8%
11,CN(C)c1ccc(C(=O)NCC2(N(C)C)CCCCC2)cc1,inactive: -3.72%
12,CN(C)C1CCCC1OC(=O)C(O)(c1ccccc1)c1ccccc1 (centres undefined),inactive: -1.18%
13,C=CCN1CCN(CCOC(=O)C(O)(c2ccccc2)c2ccccc2)CC1,inactive: -0.64%
14,O=C(NCC1(N2CCCCC2)CCCCC1)c1cc(F)c(F)cc1Cl,inactive: -0.79%
15,COc1ccc(C(=O)NCC2(N(C)C)CCCCC2)cc1,inactive: 0.17%
16,CCN1CCCC(OC(=O)C2(O)c3ccccc3C=Cc3ccccc32)C1 (centres undefined),inactive: 4.82%
17,Cc1cc(C(=O)NCC2(N3CCCCC3)CCCCC2)ccc1[N+](=O)[O-],inactive: 1.8%
18,O=C(NCC1(N2CCCCC2)CCCCC1)c1cccc(Br)c1,inactive: 1.02%
19,O=C(NCC1(N2CCCCC2)CCCCC1)c1cc([N+](=O)[O-])ccc1Cl,inactive: -0.12%
20,CN1[C@@H]2CC[C@H]1CC(OC(=O)C(O)(c1ccccc1)c1ccccc1)C2 (some centres undefined),inactive: -6.4%
21,CCN(CC)CC(C)C(C)OC(=O)C(O)(c1ccccc1)c1ccccc1 (centres undefined),inactive: -2.87%
22,COc1cc(SC)ccc1C(=O)NCC1(N(C)C)CCCCC1,inactive: -0.7%
23,CC(C)N1C(=O)CC2(CCN(CCOC(=O)C(O)(c3ccccc3)c3ccccc3)CC2)C1=O,inactive: 4.77%
24,Cc1ccc(C(=O)NCC2(N3CCCCC3)CCCCC2)cc1,inactive: 1.11%
